Experimental data taken from patent publication US6812231B2, “Benzamidine derivative” (Ajinomoto Co., Inc., priority 1998, dated 2004).

Key:
[1] = target: T1, activated human blood coagulation factor X (Homo sapiens, UniProt P00742); assay: Determination of activity of inhibiting the activated blood-coagulation factor X (chromogenic substrate, initial rate); assay type: biochemical; settings: tris hydrochloride buffer pH 8.4, room temperature, absorbance 405 nm
T1 construct: purchased Enzyme Research Co
Protocol: Determination of Activity of Inhibiting the Activated Blood-coagulation Factor X
130 μl of 100 mM tris hydrochloride buffer adjusted to pH 8.4 was added to 10 μl of an aqueous solution of a compound to be tested. Then 10 μl of a 0.5 unit/ml solution of activated human blood coagulation factor X (a product of Enzyme Research Co.) in tris hydrochloride of pH 8.4 was added to the resultant mixture. After the incubation at room temperature for 10 minutes, 50 μl of a solution of N-benzoyl-L-isoleucyl-L-glutamyl-glycyl-L-arginyl-P-nitroanilide hydrochloride (a product of Peptide Institute, Inc.) adjusted to 0.8 mM with tris hydrochloride (pH 8.4) was added thereto. The absorbance was determined and then the initial reaction rate was determined. A control was prepared in the same manner as that described above except that the solution of the compound to be tested was replaced with 10 μl of tris hydrochloride buffer adjusted to pH 8.4. The absorbance was determined with MICROPLATE READER Model 3550-UV (a product of BIO RAD) at a wave length of 405 nm at intervals of 15 seconds for 16 minutes. […]

human thrombin = target: T2, human thrombin (Homo sapiens, UniProt P00734); assay: Determination of thrombin-inhibiting activity (chromogenic substrate S-2238, initial rate); assay type: biochemical; settings: tris hydrochloride buffer pH 8.4, room temperature, absorbance 405 nm
T2 construct: solution of human thrombin (a product of SIGMA Co.); purchased SIGMA Co
Protocol: Determination of Thrombin-inhibiting Activity
130 μl of 100 mM tris hydrochloride buffer adjusted to pH 8.4 was added to 10 μl of an aqueous solution of a test compound. Then 10 μl of a solution of human thrombin (a product of SIGMA Co.) adjusted to 2 units/ml with tris hydrochloride buffer of pH 8.4 was added to the resultant mixture. After the incubation at room temperature for 10 minutes, 50 μl of a solution of D-phenylalanyl-L-pipecolyl-L-arginyl-P-nitroanilide dihydrochloride (S-2238; a product of Daiichi Kagaku Yakuhin Co.) adjusted to 0.4 mM with tris hydrochloride buffer of pH 8.4 was added thereto. The absorbance was determined and then the initial reaction rate was determined. A control was prepared in the same manner as that described above except that the solution of the compound to be tested was replaced with 10 μl of tris hydrochloride buffer adjusted to pH 8.4. The absorbance was determined with MICROPLATE READER Model 3550-UV (a product of […]) at a wave length of 405 nm at intervals of 15 seconds for 16 minutes. The negative logarithm (pIC50) of a concentration of the test compound which inhibits 50% of the activity (initial rate) of the thrombin in the absence of the test compound was determined, and employed as the index of the activity of inhibiting thrombin.

2-[4-amidino-2-[2-[(1-(1-pyridine-4-yl)piperidine-4-carbonyl) amino]ethoxy]phenyl]ethanesulfonic acid bistrifluoroacetate [Compd. of Ex. 42]
Activity of inhibiting activated blood coagulation factor X (pIC50) [1]: 7.2 | Thrombin-inhibiting activity (pIC50) (human thrombin): <3.3
